In publication PMC7704109 (eLife, 2020):

Experiments:
NPNDx1 peptide = NPNDx1 peptide (Plasmodium berghei); assay: ITC; details: both partners purified
NPNDx2 peptide = NPNDx2 peptide (Plasmodium berghei); assay: ITC; details: both partners purified

B1: 3D11 Fab H-58/73 germline-reverted mutant (Fab, V domains shown)
VH: QAYLQQSGAELVRSGASVKMSCKASGYTFTSYNMHWVKQTPGQGLEWIGYIYPGNGVTSFNQKFKGKATLTADKSSSTAYMQISSLTSEDSAVYFCASAAYWGQGTLVTVSS
VL: not shown
**Q.** B1 was tested. Which Kd (NPNDx1 peptide) did it give?
**A.** 160 nM

**Q.** And the Kd (NPNDx2 peptide)?
**A.** 140 nM
